## AlphaSeq binding of Ab-91 heavy chain variants to a spike HR2 peptide

The measurements come from Engelhart et al. 2022 (doi:10.1038/s41597-022-01779-4) through the FLAb antibody collection.

Target peptide (SARS-CoV-2 spike, HR2 region): PDVDLGDISGINAS

Parent scFv Ab-91: VL joined to VH by a (GGGGS)3 linker. Changes lie in the heavy chain CDRs alone.
VL: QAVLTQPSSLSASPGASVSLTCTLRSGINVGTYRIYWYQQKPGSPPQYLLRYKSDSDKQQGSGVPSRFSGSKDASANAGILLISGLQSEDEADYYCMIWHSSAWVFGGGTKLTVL
VH: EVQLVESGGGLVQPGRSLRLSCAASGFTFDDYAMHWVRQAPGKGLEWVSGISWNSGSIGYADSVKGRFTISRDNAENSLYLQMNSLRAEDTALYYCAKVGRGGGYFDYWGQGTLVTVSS

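The parent was found by panning a naive human phage display library on the peptide. AAYL51 was designed without a model: most single CDR substitutions and a random sample of double and triple ones. In AlphaSeq, yeast of one mating type display the scFv and yeast of the other type display the target. Mating (16 h, 30 °C) was followed by selection of diploids and sequencing of their barcodes. Read counts were normalised to the haploid input and turned into Kd by a linear fit to BCL2-family pairs of known affinity, for each replicate. Mating was done three times.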

The parent's heavy chain CDRs are GFTFDDYAMH, GISWNSGSIGYADSVK, VGRGGGYFDY; each variant's own CDRs replace them letter for letter.
Values are log10 of the apparent Kd in nM; lower means stronger binding.
A pair that was not seen in that replicate is written "ND"; this usually means weak binding, but a binder can also be missed.
Background: pairings of library AAYL51 with three empty control strains gave a value in 21% of cases (median 4.54, 5th percentile 3.26). Values in that range, when seen in few replicates, are hard to tell from nonspecific mating. Also given: how often the same scFv was detected with the empty control strains, with their mean in brackets.

{"CDR-H1": "GFTFDDYAMH", "CDR-H2": "GISWNSGSIGYADSVA", "CDR-H3": "VGRGGGYGDY", "replicates, log10 nM": "2.41 ND 1.51", "empty controls": "1/9 (3.05)"}
{"CDR-H1": "GFAFDDYAMH", "CDR-H2": "GISWWSGSIGYMDSVK", "CDR-H3": "VGRGGGYFDY", "replicates, log10 nM": "ND ND ND", "empty controls": "1/9 (4.59)"}
{"CDR-H1": "GFTFDDYAMH", "CDR-H2": "GISWNYGCIGYADLVK", "CDR-H3": "VGRGGGYFDY", "replicates, log10 nM": "ND ND ND", "empty controls": "0/9"}
{"CDR-H1": "GFTFDDYAMH", "CDR-H2": "GISGNSGSIVTADSVK", "CDR-H3": "VGRGGGYFDY", "replicates, log10 nM": "ND ND ND", "empty controls": "0/9"}
{"CDR-H1": "GFTFWDYAMH", "CDR-H2": "GILWNSGSIGYADSVK", "CDR-H3": "RGRGGGYFDY", "replicates, log10 nM": "4.25 ND ND", "empty controls": "1/9 (3.74)"}
{"CDR-H1": "GFTFDDEAMH", "CDR-H2": "GISWKSGSIGYADSVK", "CDR-H3": "VGRGGGTFDY", "replicates, log10 nM": "5.27 6.05 ND", "empty controls": "2/9 (4.68)"}
{"CDR-H1": "GFTFDDYAMH", "CDR-H2": "GISWNDESIGYADSVK", "CDR-H3": "VGRGGGYFLY", "replicates, log10 nM": "3.09 3.83 ND", "empty controls": "0/9"}
{"CDR-H1": "GFTFRDYAMH", "CDR-H2": "GITWNSGSIGYADSVK", "CDR-H3": "VGRGGGYFDC", "replicates, log10 nM": "3.64 4.79 3.08", "empty controls": "4/9 (4.49)"}
{"CDR-H1": "GFTFDDYKMH", "CDR-H2": "GISWNSGSIGYADCVK", "CDR-H3": "VGRGWGYFDY", "replicates, log10 nM": "ND 5.87 ND", "empty controls": "3/9 (5.05)"}
{"CDR-H1": "GFTFDDYAMH", "CDR-H2": "GISWNSGSIGYADSVS", "CDR-H3": "VGRGSGYFDY", "replicates, log10 nM": "5.20 ND ND", "empty controls": "0/9"}
{"CDR-H1": "GVTFDDYAMH", "CDR-H2": "GISWNSGDIGYADSVK", "CDR-H3": "VGRGGPYFDY", "replicates, log10 nM": "ND ND ND", "empty controls": "2/9 (4.33)"}
{"CDR-H1": "GFTFWDYAMH", "CDR-H2": "KISWNSGSIGYADSVK", "CDR-H3": "DGRGGGYFDY", "replicates, log10 nM": "ND ND ND", "empty controls": "0/9"}
{"CDR-H1": "GFTFDDYAMH", "CDR-H2": "GISWRSISIGYADSVK", "CDR-H3": "VGRHGGYFDY", "replicates, log10 nM": "ND ND ND", "empty controls": "0/9"}
{"CDR-H1": "GFTFDDYAMH", "CDR-H2": "GISWNSRSIGYADSVK", "CDR-H3": "AGRGGGLFDY", "replicates, log10 nM": "1.96 1.76 1.69", "empty controls": "4/9 (5.22)"}
{"CDR-H1": "GFSMDDYAMH", "CDR-H2": "GISWNSGSIGYADSVK", "CDR-H3": "VGRGPGYFDY", "replicates, log10 nM": "5.43 ND ND", "empty controls": "0/9"}
{"CDR-H1": "GFTFWAYAMH", "CDR-H2": "GISWNSGSIGYAPSVK", "CDR-H3": "VGRGGGYFDY", "replicates, log10 nM": "2.04 2.03 1.97", "empty controls": "2/9 (4.72)"}
{"CDR-H1": "GFTQDDYAMH", "CDR-H2": "GISWNSGSIGYADSSK", "CDR-H3": "VGRGGGPFDY", "replicates, log10 nM": "ND ND ND", "empty controls": "0/9"}
{"CDR-H1": "GFTFDDYAMH", "CDR-H2": "GISWNSGSIGYADSFK", "CDR-H3": "VGRGGGYFDY", "replicates, log10 nM": "0.90 0.85 0.54", "empty controls": "2/9 (5.06)"}
{"CDR-H1": "VFTFDDYAMH", "CDR-H2": "GISWNSGSIGYADSVY", "CDR-H3": "VGRGGGYFDY", "replicates, log10 nM": "ND ND ND", "empty controls": "0/9"}
{"CDR-H1": "GFTFDHYAMH", "CDR-H2": "GISWNSISIGYADSVK", "CDR-H3": "VGRGGGYFDY", "replicates, log10 nM": "0.73 0.70 0.14", "empty controls": "7/9 (5.31)"}
{"CDR-H1": "GFTFDDTAMH", "CDR-H2": "GISWNSGSIGYADSVK", "CDR-H3": "VLDGGGYFDY", "replicates, log10 nM": "ND ND ND", "empty controls": "2/9 (4.08)"}
{"CDR-H1": "GFTFDDYAMR", "CDR-H2": "GISWNSGSIGYADSVK", "CDR-H3": "YGRGGAYFDY", "replicates, log10 nM": "ND ND ND", "empty controls": "0/9"}
{"CDR-H1": "GFTFDDYAMH", "CDR-H2": "PISSNSGSIGYADSVK", "CDR-H3": "VGRGGGYFDY", "replicates, log10 nM": "ND ND ND", "empty controls": "0/9"}
{"CDR-H1": "GFTTDDLAMH", "CDR-H2": "GISWNSGSIGYADSIK", "CDR-H3": "VGRGGGYFDY", "replicates, log10 nM": "4.33 ND ND", "empty controls": "0/9"}
{"CDR-H1": "GFTFDDYAMH", "CDR-H2": "DISWNSGSIGYADSVK", "CDR-H3": "VGRFGGYQDY", "replicates, log10 nM": "4.96 ND 5.86", "empty controls": "5/9 (4.89)"}
{"CDR-H1": "GFTFDDYKMH", "CDR-H2": "GISWNSGSIGYSDSVK", "CDR-H3": "VGRGGGYFDY", "replicates, log10 nM": "ND ND ND", "empty controls": "2/9 (3.94)"}
{"CDR-H1": "GFTFIDYAMI", "CDR-H2": "GISWNSGSQGYADSVK", "CDR-H3": "VGRGGGYFDY", "replicates, log10 nM": "ND ND ND", "empty controls": "1/9 (3.61)"}
{"CDR-H1": "GVMFDDYAMH", "CDR-H2": "GISWNSGSIGYADSVK", "CDR-H3": "VGPGGGYFDY", "replicates, log10 nM": "2.89 2.78 2.92", "empty controls": "3/9 (5.30)"}
{"CDR-H1": "GFTFDDYAMH", "CDR-H2": "GIYWNSGSWGYADSVK", "CDR-H3": "VGYGGGYFDY", "replicates, log10 nM": "ND ND ND", "empty controls": "0/9"}
{"CDR-H1": "GFTFDKYAMH", "CDR-H2": "GIQWNSGSIEYADSVK", "CDR-H3": "VGRGGGYFDY", "replicates, log10 nM": "ND ND ND", "empty controls": "0/9"}

Extract of 2 entries:

CDR-H1	CDR-H2	CDR-H3	replicates, log10 nM	empty controls
GFTFWDYAMH	KISWNSGSIGYADSVK	DGRGGGYFDY	ND ND ND	0/9
GFTTDDLAMH	GISWNSGSIGYADSIK	VGRGGGYFDY	4.33 ND ND	0/9